Results on 1 molecule are retold here after patent US20080293936A1, “Novel inhibitors of lysyl oxidase” (priority 2007, published 2008).

Amino acid sequences for entries named in this document (tags omitted). Residues count along the entry.
UniProt P33072, 170-418 limits assumed: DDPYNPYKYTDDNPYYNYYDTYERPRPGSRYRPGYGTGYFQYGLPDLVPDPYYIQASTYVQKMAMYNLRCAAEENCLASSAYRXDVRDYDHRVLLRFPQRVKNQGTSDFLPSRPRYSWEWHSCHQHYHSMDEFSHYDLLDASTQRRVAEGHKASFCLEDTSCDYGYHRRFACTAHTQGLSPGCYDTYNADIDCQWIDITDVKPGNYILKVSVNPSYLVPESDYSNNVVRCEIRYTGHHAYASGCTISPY

pIC50: −log10 of the molar value.

The target in assay [1] is T1, Lysyl oxidase (Bos taurus, UniProt P33072). The assay is described as follows: Kinetic investigation: dialysis of lysyl oxidase-inhibitor complexes against inhibitor-free buffer, recovery of activity. The following applies: for vt/vmax: preincubation at 10-fold IC50. Here is the method: Lysyl oxidasee and lysyl oxidase inhibitors of the structural formulas (XX)-(XXIII) (Table 1) were coincubated at concentrations that were 10-fold over the respective IC50 of the inhibitor and were subsequently dialyzed against 0.5 M borax buffer at pH 8.2 without added inhibitor. The dialysis buffer was exchanged twice during the first hour and subsequently three times in hourly intervals. The volume against which was dialyzed was at least 100-fold greater than the volume of the lysyl oxidase preparation in the dialysis tube. After 2, 4, 5 und 19 h lysyl oxidase activity was measured as described in Example 2. In a parallel assay a dialysis with a non-inhibited lysyl oxidase preparation was carried out to determine the effect of spontaneous activity loss during dialysis and to obtain a reference value (100% activity, positive control). From the obtained change in time-dependent activity it was possible to calculate the dissociation velocity constants of the inhibitor compounds, the half life times of the enzyme-inhibitor complexes and the association velocity constants. In the following section it is derived how these kinetic parameters can be determined form the measurement of the reaction velocity with the inhibited fraction at the timepoint t (vt) and the reaction velocity with the positive control (vmax).
Derivations: During dialysis against buffer without inhibitor the complex (EI) consisting of enzyme (E) and inhibitor (I) decays with a dissociation constant of first k−1
The velocity of decay is proportional to the concentration of the enzyme-inhibitor complex:
Rearranging this equation and definite Integration from the initial enzyme-inhibitor-complex concentration ([EI]0) to the concentration of the complex at the measurement time point t ([EI]t) on the left side and from t=0 to t on the right side yields:
The ratio of the reaction velocity when the inhibited enzyme preparation is used at a measurement time point t (vt) to the reaction velocity when the positive control is used (vmax) is dependent on the proportion of the total enzyme concentration in the assay ([E]0) that is present as enzyme-inhibitor-complex concentration at a time point t ([EI]t). The following equation describes this relationship: […]
For reasons of simplification a variable Rt can be defined
Solving the above differential equation and substituting Rt into the equation one obtains: […]
By linear regression with ln Rt and t, k−1 can be determined as the coefficient of slope.
Using k−1 one can calculate the half-life time of the enzyme-inhibitor-complexes (t1/2) as:
To determine the kinetic association constant the equilibrium is considered:
At the particular inhibitor concentration (IC50) at which the reaction velocity is 50% of the reaction velocity of the positive control, the free enzyme concentration ([E]) is approximately equal to the concentration of the enzyme inhibitor complex ([EI])
By substitution into the equilibrium equation and by simple rearrangement one obtains a term for the association constant which is dependent on the dissociation constant determined above and on the IC50:
Results Tables 2a to 2d show the results from reaction velocity measurements at the time points after 0, 120, 270 and 1140 min of dialysis against an inhibitor-free buffer. The relative reaction velocities and the derived constants are provided. In addition, the results of a regression analysis according to Example 3 are provided, from which the kinetic constants from table 3 can be calculated. Results are shown for compounds (XX)-[…].

For assay [2], the target named is T1, Lysyl oxidase. The assay is described as follows: Lysyl oxidase inhibition, peroxidase-coupled fluorometric activity test. How it is done: Lysyl oxidase was isolated form bovine aorta, modified according to Williams und Kagan (1985) Assessment of lysyl oxidase variants by urea gel electrophoresis: evidence against disulfide isomers as bases of the enzyme heterogeneity. Anal. Biochem. 149: 430-7, and Kagan und Sullivan (1982) Lysyl oxidase: preparation and role in elastin biosynthesis. Methods Enzymol. 82(Pt A): 637-50. The enzyme preparation was carried out at 4° C. with fresh material from bovine aorta. The aorta was homogenized for 90 seconds in 2.5. ml buffer per gram of tissue. The buffer consisted of 16 mM potassium phosphate, 150 mM sodium chloride and 1 mM phenylmethylsulfonylfluoride. The homogenized mixture was centrifuged for 20 minutes at 11,000 g. […]
To determine the specific enzyme activity of lysyl oxidase a coupled activity test with fluorescence was applied (modified according to nach Trackman P C, Zoski C G, Kagan, H M (1981) Development of a peroxidase-coupled fluorometric assay for lysyl oxidase. Anal. Biochem. 113: 336-342). […]
The fluorescence of the reaction solution was determined at an excitation wavelength of 350 nm and measurement of emission was carried out at 425 nm at 37° C. Before the addition of the sample solution fluorescence was determined by calibration with 1 nmol hydrogen peroxide. This increase in fluorescence was equivalent to a turnover of 1 nmol 1,5-diaminopentane. […]

[3] abbreviates: regression analysis below Tables 2a-2d.

One may read the pIC50 as the negative decadic logarithm of the IC50, by convention in mol/L. Higher therefore signals a small IC50. Regarding `O=c1c(Oc2ccc(CCCO)cc2)c(-n2ccnc2)cnn1-c1ccc(Cl)cc1`, the Rt was 0.74 at Lysyl oxidase [1] (0 min of dialysis), 0.73 at Lysyl oxidase [1] (120 min of dialysis), 0.54 on Lysyl oxidase [1] (270 min of dialysis) and 0 on Lysyl oxidase [1] (1,140 min of dialysis). Besides, the results for the “ln Rt” value at Lysyl oxidase [1] (0 min of dialysis), at Lysyl oxidase [1] (120 min of dialysis) and at Lysyl oxidase [1] (270 min of dialysis) were −0.3011, −0.3147 and −0.6162, respectively. The vt/vmax came out at 0.26 on Lysyl oxidase [1] (0 min of dialysis), 0.27 at Lysyl oxidase [1] (120 min of dialysis), 0.46 at Lysyl oxidase [1] (270 min of dialysis) and 1 on Lysyl oxidase [1] (1,140 min of dialysis). Further, the “k−1” value at Lysyl oxidase [1] (Table 3, calculated from slopes) was 0.072 h⁻¹. Also, at Lysyl oxidase [1] (Table 3, from k−1 and IC50), the “k1 (association velocity constant)” value was found to be 26.4 M⁻¹ s⁻¹. Also, at Lysyl oxidase [1] (setting [3]), the “k−1 (dissociation velocity constant)” value came out at 0.07209 h⁻¹. The “slope (linear regression of ln Rt against t)” value on Lysyl oxidase [1] (setting [3]) is −1.202×10^−3 1/min. In addition, the pIC50 is 6.12 on Lysyl oxidase [2] (Table 1, lysyl oxidase from bovine aorta, 37° C., pH 8.2) and 6.12 on Lysyl oxidase [2] (Table 3).
